Tests used:
[1] = target: T1, human 5-hydroxytryptamine-2C (h5-HT2C) receptor (Homo sapiens, UniProt P28335); assay: [125I]DOI binding to membranes of CHO cells expressing the human 5-HT2C receptor; conditions: reference compounds, [125I]DOI displacement, read-out: Ki (95% confidence interval)
T1 construct: expressed in transfected cells; host or cells: CHO (Chinese Hamster Ovary) cells; membrane preparation

Sequences of proteins named here, by UniProt entry; tags and fusion partners are left off. Residues count along the entry.
UniProt P28335, 33-458: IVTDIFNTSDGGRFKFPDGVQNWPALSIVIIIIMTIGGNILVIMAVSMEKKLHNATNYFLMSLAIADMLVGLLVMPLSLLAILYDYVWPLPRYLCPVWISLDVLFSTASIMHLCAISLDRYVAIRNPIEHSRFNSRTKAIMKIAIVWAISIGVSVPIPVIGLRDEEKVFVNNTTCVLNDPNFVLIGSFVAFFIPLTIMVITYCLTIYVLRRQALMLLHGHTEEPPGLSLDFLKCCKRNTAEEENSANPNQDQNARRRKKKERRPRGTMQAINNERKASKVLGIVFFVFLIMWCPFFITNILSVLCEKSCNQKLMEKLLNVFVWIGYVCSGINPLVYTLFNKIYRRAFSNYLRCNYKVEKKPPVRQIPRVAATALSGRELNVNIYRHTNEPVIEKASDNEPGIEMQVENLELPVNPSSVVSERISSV

human 5-HT2C receptor = human 5-HT2C receptor (Homo sapiens, UniProt P28335); assay: Calcium mobilization (FLIPR) in CHO cells stably expressing the human 5-HT2C receptor; type: cell-based; conditions: reference compounds, h5-HT2C CHO cells

Substance: 1-(2,5-dimethoxy-4-iodophenyl)isopropylamine [DOI, reference compound]
- Ki [1]: 6.2 nM
- EC50 (human 5-HT2C receptor): 0.5 nM

— patent US7368477B2, “Benzofuranyl alkanamine derivatives and uses thereof” (Wyeth, priority 2005, dated 2008)
